Reference: US20090068290A1, “BIFEPRUNOX DOSES FOR TREATING SCHIZOPHRENIA” (priority 2006, published 2009)

Key:
[1] = tested on: adult subjects with schizophrenia; assay: Adverse events (TEAE, SAE, special interest, discontinuation, EPS-related TEAE), Clinical Study Three; details: olanzapine 15 mg
Procedure: There were four treatment arms in this study, approximately 144 subjects per arm. […] After completing the Single-Blind Placebo Lead-in Period of at least three days, bifeprunox-treated subjects were titrated from 0.25 mg up to 20 mg/day or 30 mg/day according to a standardized titration scheme over a seven- or eight-day period, respectively. When the assigned dose was reached, subjects were maintained at that dose for the remainder of the six week treatment period. […] Subjects were hospitalized (if not already inpatients) after eligibility for study entry was verified, starting from the Screening Visit until at least 10 days after Baseline. Subjects could be hospitalized longer than 10 days if considered medically necessary by the Investigator. Rating scale assessments for efficacy and abnormal movement disorders were done weekly except for Week 5. Safety assessments were performed at Screening, during treatment and at the end of the study. Subject satisfaction with study medication was assessed at Week 6. Samples of whole blood were obtained at Weeks 2, 4, and 6 for determination of bifeprunox in plasma.
EPS were assessed using treatment-emergent adverse events such as akathisia, dyskinesia, parkinsoniam, etc. and/or formal rating scales such as SAS, BAS, and/or AIMS.

[2] = Body weight, Clinical Study Three; details: olanzapine 15 mg
[3] = Pooled metabolic analysis, 6-week studies: body weight; details: 6-week placebo controlled trials, baseline BMI All; BX total doses, RISP 6 mg, OLZ 15 mg, HAL 10 mg
Description: OBJECTIVE: To examine the metabolic effects of bifeprunox in patients with acute and stable schizophrenia.
METHODS: Metabolic data was compiled from one 6-month and four 6-week studies (i.e., a treatment period) of bifeprunox in patients with stable and acute schizophrenia, respectively. In the 6-month study, patients received bifeprunox (n=331) or placebo (PBO) (n=166). […] Metabolic evaluations included body weight, body mass index (BMI), plasma glucose and lipid profiles. Fasting glucose and lipid values were assessed in one 6-week study and in the 6-month study. Triglyceride:HDL ratio (TG:HDL) was calculated as a marker of insulin resistance. No statistical analyses were performed; only descriptive statistics are presented.

Structure (SMILES)	incidence of dizziness (TEAE of special interest) [1] [%]	incidence of extrapyramidal disorder [1] [%]	subjects who discontinued study medication due to an AE [1] [%]	subjects with at least one AE that led to study termination [1] [%]	subjects with at least one SAE [1] [%]	subjects with at least one TEAE [1] [%]	subjects with at least one severe TEAE [1] [%]	subjects with at least one special interest TEAE [1] [%]	Weight, Baseline Mean of subjects with Endpoint change [2] [lbs]	Weight, Baseline Mean of subjects with Week 6 change [2] [lbs]	Weight, Baseline, Median [2] [lbs]	incidence of markedly abnormal (≧7%) increases in body weight [2] [%]	mean weight change at Endpoint [2] [lbs]	≧7% weight increase, (%) [3] [%]
Cc1cc2c(s1)Nc1ccccc1N=C2N1CCN(C)CC1 [Olanzapine, olanzapine, reference compound]	5	1	6	6	4	73	6	7	173.7	173.1	173	19	5.2	–
Cc1cc2c(s1)Nc1ccccc1N=C2N1CCN(C)CC1 [OLZ]	–	–	–	–	–	–	–	–	–	–	–	–	–	17.3
